Yeast mating assay 1: variants of the scFv Ab-14

The measurements come from Engelhart et al. 2022 (doi:10.1038/s41597-022-01779-4) through the FLAb antibody collection.

Antigen: PDVDLGDISGINAS, a 14-residue peptide of the SARS-CoV-2 spike HR2 region.

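Phage display of a naive human antibody library on the peptide gave the parent. In library AAYL50, one, two or three CDR residues were substituted; doubles and triples were drawn at random. The scFvs were displayed on barcoded MATa yeast, the peptide on MATalpha yeast. Mating (16 h, 30 °C) was followed by selection of diploids and sequencing of their barcodes. Read counts were normalised to the haploid input and turned into Kd by a linear fit to BCL2-family pairs of known affinity, for each replicate. Each pool was mated in three replicate cultures.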

Ab-14 is the parent antibody, in scFv form: VH, then a 15-residue (Gly4Ser)3 linker, then VL. The heavy chain is unchanged in all variants.
VH: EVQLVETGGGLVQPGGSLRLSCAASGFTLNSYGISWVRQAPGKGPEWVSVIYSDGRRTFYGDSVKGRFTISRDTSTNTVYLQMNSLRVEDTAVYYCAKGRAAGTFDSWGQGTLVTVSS
VL: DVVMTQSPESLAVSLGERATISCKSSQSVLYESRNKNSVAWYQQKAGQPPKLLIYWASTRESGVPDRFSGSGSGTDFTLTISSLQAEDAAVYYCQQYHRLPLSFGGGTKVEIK

Changes read parent residue, position, new residue, counted from the first residue of the VL shown. All variants listed here change S58 of the VL, counted from its first residue. Scale: log10 of Kd in nM, estimated from mating counts; low values are strong binders. A mean of the replicates is given; it leaves out those without a signal. "nd" means that the variant was in the library but no mating with the target was seen in that replicate; the authors take this as a sign of poor binding, and no number exists. Entries are sorted by rising average, undetected variants last. As a blank, each scFv also met three strains without target: over library AAYL50, 18% of these pairings were detected, typically at 4.19 and seldom below 2.99.

The variant S25I L30W S58R showed 0.18, 0.53, 0.34 (mean 0.35). The variant W56C S58N E61M gave 0.84, 1.07, 0.91 (mean 0.94). With K24S V29T S58T the result was 1.15, 1.26, 1.27 (mean 1.23). The variant S58M H98G showed 1.11, 1.95, 1.60 (mean 1.55). The variant S25L S33C S58F gave 1.48, 1.66, 1.65 (mean 1.60).

The variant N37Y S58A L102M showed 1.50, 1.49, 1.96 (mean 1.65). For S38A S58R P101E, the assay gave 1.60, 1.78, 1.58 (mean 1.65). The variant A57T S58E R99Q gave 1.87, 1.52, nd (mean 1.69). With R34Y S38D S58H the result was 1.68, 1.65, 1.78 (mean 1.70). For K24Q S58K H98G, the assay gave 1.68, 1.52, 1.95 (mean 1.72).

The variant S25V S38E S58G gave 1.70, 1.72, 1.80 (mean 1.74). With Q27T S58A L102Y the result was 2.04, 1.73, 1.69 (mean 1.82). For R34W S58I S62A, the assay gave 2.26, 1.61, 1.75 (mean 1.87). The variant S33G N35F S58V gave 1.68, 1.96, 2.02 (mean 1.89). The variant S26F K36H S58H gave 2.16, 2.37, nd (mean 2.27).

The variant S33F S58A showed 2.27, nd, 2.78 (mean 2.53). For R34M A57S S58C, the assay gave 2.71, 2.50, 2.44 (mean 2.55). For Y31C S58Y H98F, the assay gave 3.05, 2.64, 2.89 (mean 2.86). With S33W S58K T59Y the result was 3.14, 2.52, 3.46 (mean 3.04). With S58Y R99T S103Q the result was 2.96, 2.86, 3.41 (mean 3.08).

The variant S58C gave 3.18, 3.07, 3.22 (mean 3.15). With S26M K36P S58R the result was nd, 3.23, nd. For S58G Y97L, the assay gave 3.68, nd, 3.18 (mean 3.43). With Q27D S58Q Y97I the result was 3.31, 3.17, 3.87 (mean 3.45). For S58D Q95R Y97A, the assay gave nd, 3.48, nd.

With N37L S58K L100Q the result was 3.30, nd, 3.70 (mean 3.50). The variant S58D H98V L102Y showed nd, nd, 3.60. The variant S25K V29Q S58A gave 3.72, 3.62, 3.69 (mean 3.68). The variant Y31P A40V S58A showed 3.82, nd, nd. The variant A40T S58F S103F showed nd, nd, 3.99.

For S38M S58Q, the assay gave 4.57, 4.26, 3.82 (mean 4.21). With K24D S26A S58G the result was 4.35, 4.12, 4.57 (mean 4.35). For K24P N37M S58C, the assay gave 4.44, 4.32, nd (mean 4.38). The variant V39N S58W Y97A gave 4.04, 4.88, nd (mean 4.46). With S58A R60K P101E the result was nd, 3.19, 5.81 (mean 4.50).

With S28R N35S S58H the result was nd, nd, 4.52. With S26I E32H S58K the result was 4.93, 4.29, nd (mean 4.61). With V29N S38I S58W the result was 5.01, nd, nd. The variant S58K R60E S103H gave 5.27, 5.06, nd (mean 5.17). With S58T R60Q S103E the result was 5.76, nd, nd.

For A40Q W56I S58Q, the assay gave nd, nd, nd. The variant S58A Q96T L100Q showed nd, nd, nd. The variant S25V A57N S58P showed nd, nd, nd. The variant S58P R60I Q95M showed nd, nd, nd. For S58P Q95L P101W, the assay gave nd, nd, nd.

With V29Y S58H P101L the result was nd, nd, nd. The variant K24G S38E S58I gave nd, nd, nd. The variant L30G A40V S58I gave nd, nd, nd. For N37Y S58F L102Q, the assay gave nd, nd, nd. With N35E S58F P101S the result was nd, nd, nd.

The variant S58H R60G R99G gave nd, nd, nd.

Repeated from above, the 8 best binders with a signal in all replicates:

changes	replicates, log10 nM	mean log10 Kd (nM)
S25I L30W S58R	0.18, 0.53, 0.34	0.35
W56C S58N E61M	0.84, 1.07, 0.91	0.94
K24S V29T S58T	1.15, 1.26, 1.27	1.23
S58M H98G	1.11, 1.95, 1.60	1.55
S25L S33C S58F	1.48, 1.66, 1.65	1.60
N37Y S58A L102M	1.50, 1.49, 1.96	1.65
S38A S58R P101E	1.60, 1.78, 1.58	1.65
R34Y S38D S58H	1.68, 1.65, 1.78	1.70